Measured values as given in ChEMBL document CHEMBL4715927, “A New FXR Ligand Chemotype with Agonist/Antagonist Switch” (ACS Med Chem Lett, 2021).

Assays:
Assay type in all cases: cell-based
HepG2 [1] = test: Agonist activity at human FXR/human RXR heterodimer expressing in human HepG2 cells co-expressing pGL3basic-BSEP assessed as response element activation incubated for 24 hrs heterodimer assay
HepG2 [2] = test: Antagonist activity at human FXR/human RXR heterodimer expressing in human HepG2 cells co-expressing pGL3basic-BSEP assessed as reduction in CDCA-induced activation incubated for 24 hrs heterodimer assay; details: filed as antagonist
HepG2 [3] = test: Antagonist activity at human FXR/human RXR heterodimer expressing in human HepG2 cells co-expressing pGL3basic-BSEP assessed as reduction in GW4064-induced response element activation incubated for 24 hrs heterodimer assay; details: filed as antagonist

## CC(C)(C)c1ccc(-c2cc(CCC(=O)O)n[nH]2)cc1
HepG2 [1]
  Activity: inactive
HepG2 [2]
  Activity: Active
HepG2 [3]
  Activity: Active

The source made the active and inactive calls. The calls are words filed in the database; no cut-off is given here.
